Target: Neuronal acetylcholine receptor; alpha4/beta2 (Homo sapiens, UniProt P17787+P43681)
Test: Agonist activity at human alpha4beta2 nAChR assessed as stimulation of [86Rb+] efflux after 2 mins by cell-based liquid scintillation counting relative to nicotine
Procedure, shortened: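 Human α4β2 stably expressed in YXα4β2H1 cells, grown 18–24 h to 85–95% confluence and loaded with ⁸⁶Rb⁺ (2 μCi/mL) for 4 h at 37 °C. Cells exposed 2 min to eight ligand concentrations in HEPES buffer, pH 7.4. Efflux counted as % of total loading (medium plus NaOH lysate), net of basal.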

By UniProt entry, the sequences of proteins in these tests, tags left out. Where a name states a change or a piece, a line headed by the entry shows the natural chain unless it says otherwise.
UniProt P17787: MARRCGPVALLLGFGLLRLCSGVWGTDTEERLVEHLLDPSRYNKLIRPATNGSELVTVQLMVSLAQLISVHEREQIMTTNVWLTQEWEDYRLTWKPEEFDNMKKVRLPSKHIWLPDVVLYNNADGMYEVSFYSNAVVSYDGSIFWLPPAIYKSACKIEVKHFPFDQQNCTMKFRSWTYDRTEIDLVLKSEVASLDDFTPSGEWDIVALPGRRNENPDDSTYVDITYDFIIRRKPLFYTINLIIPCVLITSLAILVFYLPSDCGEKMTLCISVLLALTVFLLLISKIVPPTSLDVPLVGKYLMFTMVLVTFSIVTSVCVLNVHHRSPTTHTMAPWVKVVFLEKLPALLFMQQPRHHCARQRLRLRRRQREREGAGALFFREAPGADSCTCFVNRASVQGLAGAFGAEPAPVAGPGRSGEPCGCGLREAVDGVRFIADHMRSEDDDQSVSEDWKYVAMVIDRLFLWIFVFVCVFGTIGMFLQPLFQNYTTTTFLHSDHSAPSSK
UniProt P43681: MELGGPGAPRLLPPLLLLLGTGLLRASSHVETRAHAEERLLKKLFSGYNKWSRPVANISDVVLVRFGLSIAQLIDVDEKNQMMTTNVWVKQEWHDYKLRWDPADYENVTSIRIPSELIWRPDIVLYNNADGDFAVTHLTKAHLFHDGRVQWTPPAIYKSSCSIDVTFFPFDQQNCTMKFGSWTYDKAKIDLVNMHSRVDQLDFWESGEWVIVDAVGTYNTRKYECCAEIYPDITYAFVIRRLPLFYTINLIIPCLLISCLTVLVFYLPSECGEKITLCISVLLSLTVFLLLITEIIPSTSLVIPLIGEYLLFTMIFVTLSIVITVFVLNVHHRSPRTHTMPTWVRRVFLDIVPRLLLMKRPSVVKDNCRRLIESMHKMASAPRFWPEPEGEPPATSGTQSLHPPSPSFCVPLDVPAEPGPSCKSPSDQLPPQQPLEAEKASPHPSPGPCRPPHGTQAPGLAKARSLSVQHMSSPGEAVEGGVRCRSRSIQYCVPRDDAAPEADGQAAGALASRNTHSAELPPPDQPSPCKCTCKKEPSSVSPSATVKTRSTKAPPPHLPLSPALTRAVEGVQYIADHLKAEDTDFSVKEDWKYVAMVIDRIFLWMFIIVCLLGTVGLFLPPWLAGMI

c1cnc2cc3c(cc2n1)[C@@H]1CNC[C@H]3C1 [VARENICLINE]
Emax: 45%

Source: ChEMBL document CHEMBL3085723, “Design, synthesis and discovery of picomolar selective α4β2 nicotinic acetylcholine receptor ligands” (J Med Chem, 2013)
